{
  "source": "paper PMC9826262",
  "about": "“Discovery of Benzo[d]imidazole‐6‐sulfonamides as Bromodomain and Extra‐Terminal Domain (BET) Inhibitors with Selectivity for the First Bromodomain” (Chemmedchem, 2022)",
  "key": {"[1]": {"target": "T1, BRD4 BD1 (Homo sapiens, UniProt O60885)", "T1 construct": "His6 (cleaved yes); made in house; host or cells: E. coli BL21(DE3)-R3-pRARE2", "assay": "Isothermal titration calorimetry", "type": "binding", "conditions": "15 °C; BRD4 BD1 titrated into 25 μM compound; read-out: KD (ITC)", "experimental": "To quantify the affinity for BRD4 BD1 protein, isothermal titration calorimetry (ITC) was used.\nIsothermal Titration Calorimetry. Experiments were carried out on an ITC200 titration microcalorimeter from MicroCal™, LLC (Northampton, MA) with a cell volume of 0.200 mL and a 40 μL microsyringe. All experiments were carried out at 15 °C while stirring at 750 rpm, in ITC buffer (20 mM HEPES pH 7.5 (at 25 °C), 150 mM NaCl). […] Following baseline equilibration an additional delay of 60 s was applied. All titrations were conducted using an initial injection of 0.3 μL followed by 38 identical injections of 1 μL with a duration of 2 s (per injection) and a spacing of 120 s between injections. The heat of dilution was determined by independent titrations (protein into buffer) and was subtracted from the experimental data. The collected data were implicated in the MicroCal™ Origin software supplied with the instrument to yield enthalpies of binding (ΔH) and binding constants (KB) as previously described by Wiseman and co‐workers.[34] Thermodynamic parameters were calculated (ΔG=ΔH−TΔS=−RTlnKB, where ΔG, ΔH and ΔS are the changes in free energy, enthalpy and entropy of binding respectively). A single binding site model was employed"}, "[2]": {"target": "T2, BRD4(BD2) (Homo sapiens, UniProt O60885)", "T2 construct": "tested on BD1 and BD2 domains (6×His‐tagged) of each BET protein", "assay": "TR-FRET displacement binding assay", "conditions": "AlexaFluor647 derivative of 1"}},
  "note": "Values joined by “and” are separate entries in the source; they are usually repeats but may differ in a detail not shown here. Equal entries are not always repeated.",
  "data": [
    {"smiles": "Cc1cc(-c2nc3cc(S(=O)(=O)Nc4ccccn4)ccc3[nH]2)cc(C)c1O", "note": "[9 a, 2‐(4‐hydroxy‐3,5‐dimethylphenyl)‐N‐(pyridin‐2‐yl)‐1H‐benzo[d]imidazole‐6‐sulfonamide]", "values": [
      {"measurement": "Kd", "setting": "[1]", "value": "70 nM and 70.4 nM"},
      {"measurement": "IC50", "setting": "[2]", "value": "2200 ± 1000", "unit": "nM"}
    ]}
  ]
}
